Measured values taken from PMC10343475, “Systematic Modification of the Substitution Pattern of the 7-Hydroxy-5-oxopyrazolo[4,3-b]pyridine-6-carboxamide Scaffold Enabled the Discovery of New Ligands with High Affinity and Selectivity for the Cannabinoid Type 2 Receptor” (Molecules, 2023).

Protein sequences, listed by entry. Tags and fused reporters are not part of them.
UniProt P21554, whole entry: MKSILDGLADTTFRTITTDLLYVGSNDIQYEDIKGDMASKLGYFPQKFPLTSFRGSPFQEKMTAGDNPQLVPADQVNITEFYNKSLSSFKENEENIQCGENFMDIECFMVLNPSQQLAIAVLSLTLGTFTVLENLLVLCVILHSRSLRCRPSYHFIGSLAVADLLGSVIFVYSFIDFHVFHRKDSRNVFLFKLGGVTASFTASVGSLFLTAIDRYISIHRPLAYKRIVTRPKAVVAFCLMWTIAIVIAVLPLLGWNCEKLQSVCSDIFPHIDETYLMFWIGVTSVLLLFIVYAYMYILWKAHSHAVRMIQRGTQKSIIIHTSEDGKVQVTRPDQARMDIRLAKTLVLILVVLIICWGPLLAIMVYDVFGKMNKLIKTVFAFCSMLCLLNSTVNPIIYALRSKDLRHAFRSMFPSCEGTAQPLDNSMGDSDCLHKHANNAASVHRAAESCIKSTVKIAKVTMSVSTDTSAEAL

Molecular target: human recombinant CB1 receptor (Homo sapiens, UniProt P21554)
Assay: Competition binding assay, displacement of [3H]-CP-55,940, CB1R
Settings: membranes from HEK cells, mean ± SD, at least three experiments in duplicate
Procedure: Binding at equilibrium was performed as previously reported. […] All compounds were tested following the procedure described by the manufacturer (Perkin Elmer, Italy). […] Ki values were calculated by applying the Cheng–Prusoff equation to the IC50 values (obtained by GraphPad) for the displacement of the bound radioligand by increasing concentrations of the test compound.

## Cn1cc2c(n1)c(O)c(C(=O)NC13CC4CC(CC(C4)C1)C3)c(=O)n2Cc1ccccc1 [Compound 26, N-(Adamantan-1-yl)-4-benzyl-7-hydroxy-2-methyl-5-oxo-4,5-dihydro-2H-pyrazolo[4,3-b]pyridine-6-carboxamide]
  Ki: 116 ± 23.7 nM
